Assays:
naive ES-2 cells [1] = test: cells; conditions: Homo sapiens, ES-2, read-out: cytoreductive effect (potency)
naive ES-2 cells [2] = conditions: compared to the IGF2BP1 deleted ES-2 cells

CCNC(=O)/C=C/C(=O)c1ccccc1 [J5, (E)-N-ethyl-4-oxo-4-phenylbut-2-enamide]
IC50 (naive ES-2 cells [1]): 0.58 µM
selectivity to naive ES-2 cells (naive ES-2 cells [2]): around 1.8 fold
